Laboratory results published in patent US7597882B2, “Protein crosslinkers, crosslinking methods and applications thereof” (Incept LLC, priority 2006, dated 2009).

The chains behind the UniProt entries cited, without tags or fusion partners. Residues count along the entry.
UniProt P02769, 25-607: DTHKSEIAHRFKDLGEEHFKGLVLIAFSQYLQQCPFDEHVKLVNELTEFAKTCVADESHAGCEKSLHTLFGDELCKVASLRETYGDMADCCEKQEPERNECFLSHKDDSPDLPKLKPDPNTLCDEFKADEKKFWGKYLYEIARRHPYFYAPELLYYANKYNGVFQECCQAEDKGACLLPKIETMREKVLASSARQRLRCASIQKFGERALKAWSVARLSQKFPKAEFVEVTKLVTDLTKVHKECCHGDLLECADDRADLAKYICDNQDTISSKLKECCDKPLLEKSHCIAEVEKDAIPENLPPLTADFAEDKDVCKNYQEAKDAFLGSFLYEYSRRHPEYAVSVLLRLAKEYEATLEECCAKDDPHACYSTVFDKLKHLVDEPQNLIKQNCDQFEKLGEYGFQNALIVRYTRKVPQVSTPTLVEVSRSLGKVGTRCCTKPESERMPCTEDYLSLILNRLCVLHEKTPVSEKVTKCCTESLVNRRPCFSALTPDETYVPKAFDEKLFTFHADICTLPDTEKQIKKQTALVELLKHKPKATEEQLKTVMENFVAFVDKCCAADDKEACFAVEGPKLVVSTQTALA

Experiments:
[1] = Solubility in water; assay type: physicochemical; details: in 1 ml water or PBS solution
[2] = target: bovine albumin (Bos taurus, UniProt P02769); test: Crosslinking of protein (bovine albumin) using water soluble crosslinkers
Experimental: 1 g of bovine albumin is dissolved in 1 ml phosphate buffer solution (20 mM PBS, pH 7.4). 100 mg aspartic acid succinimide NHS ester (Example 30) is dissolved in 1 ml PBS solution (20 mM PBS, pH 7.4). Both the solutions are mixed in 50 ml polypropylene tube. The crosslinked gel formation is noticed in less than 30 minutes.
1 g of bovine albumin is dissolved in 2 ml borate buffer (10 mM, pH 9.5). 100 mg Lysine Succinimide NHS ester (Example 1) is dissolved in 1 ml 10 mM phosphate buffer, pH 4.0. 1 ml of each solution are mixed in a 50 ml polypropylene centrifuge tube. The gel formation is noticed in less than 30 minutes.

[3] = Degradation of crosslinked gel made with 8 arm PEG amine; assay type: physicochemical; details: gel with 8 arm PEG amine 20000; hydrolysis of ester bond of crosslinker
Experimental: 0.12 g Hydroxylamine Succinate NHS ester (Example 4) is dissolved in 5 ml phosphate buffered saline. 1 ml of each of these two solutions are mixed to produce a crosslinked gel. The crosslinked gel degrades due to hydrolysis of succinate ester bond in Hydroxylamine Succinate NHS ester.
0.12 g Hydroxylamine Glutarate NHS ester (Example 7) is dissolved in 5 ml phosphate buffered saline. 1 ml of each of two solutions are mixed to produce a crosslinked gel. The crosslinked gel degrades due to hydrolysis of glutarate ester bond in Hydroxylamine Glutarate NHS ester.

## Aspartic Acid Succinimide NHS Ester
[1]
  amount of crosslinker dissolved completely: 15 mg
[2]; 1 g bovine albumin in 1 ml PBS, 100 mg crosslinker in 1 ml PBS (20 mM, pH 7.4)
  crosslinked gel formation time: less than 30 minutes

## Hydroxylamine Succinate NHS Ester
[3]
  degradation of crosslinked gel: degrades

## Lysine Succinimide NHS ester
[2]; bovine albumin in borate buffer pH 9.5, 100 mg crosslinker in 1 ml 10 mM phosphate buffer pH 4.0
  gel formation time: less than 30 minutes
